Source: PubChem BioAssay AID1817 (Sanford-Burnham Center for Chemical Genomics, 2009)
Only a part is listed here, and it is no random draw. Potency and affinity values are given separately. Activity calls are given as the source filed them.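 Rule for the calls: active = displacement of at least 50% at 20 µM, with a fluorescence ratio check between 0.3 and a set limit; inactive = the rest.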

Protein sequences, listed by entry. Tags and fused reporters are not part of them. Lines headed by an entry give the natural chain unless they say otherwise; changes in a name come on top.
UniProt Q8IUQ4: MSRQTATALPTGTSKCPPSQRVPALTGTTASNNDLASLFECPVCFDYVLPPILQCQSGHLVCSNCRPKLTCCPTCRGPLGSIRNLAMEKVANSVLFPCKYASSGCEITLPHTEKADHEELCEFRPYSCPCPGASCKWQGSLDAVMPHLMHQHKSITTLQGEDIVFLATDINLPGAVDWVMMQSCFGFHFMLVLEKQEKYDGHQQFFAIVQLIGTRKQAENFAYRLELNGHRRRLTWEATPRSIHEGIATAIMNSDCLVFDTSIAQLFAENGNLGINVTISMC

Each compound was assayed against E3 ubiquitin-protein ligase SIAH1 (Homo sapiens) (UniProt Q8IUQ4) (assay: Siah-1 peptide-binding antagonists, primary screen, biochemical, fluorescence polarization, rhodamine-plectin, uHTS (AID 1817;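 note: plate controls were Siah plus tracer with DMSO for no effect and tracer alone without Siah for full effect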)). Conditions: Siah-1 / rhodamine-plectin peptide fluorescence polarization; at 20 µM; stronger effect = higher value.

| SMILES | displacement |
| --- | --- |
| Cc1ccc(C(=O)OC2CN3CCC2CC3)cc1 (stereo not drawn) | inactive: 4.1% |
| O=C(/C=C/c1ccccc1)OC1CN2CCC1CC2 (stereo not drawn) | inactive: -5.2% |
| CN(C)C1(CNC(=O)c2ccc(S(C)(=O)=O)cc2)CCCCC1 | inactive: 2.9% |
| O=P1(Nc2ncccn2)COc2ccccc2OC1 | inactive: -2.2% |
| O=P1(Nc2ccc(Br)cn2)COc2ccccc2OC1 | inactive: -2.2% |
| Cc1ccc(OCC(=O)OC2CN3CCC2CC3)cc1 (stereo not drawn) | inactive: 0.3% |
| O=[As](O)(c1cccs1)c1cccs1 | inactive: -4.15% |
| Nc1cccc([As](=O)(O)c2ccccc2)c1 | inactive: 3.7% |
| CCOP(=O)(Nc1ccc(C)cn1)OCC | inactive: 0.55% |
| O=P1(Nc2ccccn2)COc2ccccc2OC1 | inactive: 0.6% |
| CCC1=CC2Cc3nc4ccc(Cl)cc4c(N)c3C(C1)C2 (stereo not drawn) | inactive: 12% |
| CCOP(=O)(NC(=NC(C)c1ccccc1)NC(C)c1ccccc1)OCC (stereo not drawn) | inactive: 4.1% |
| Clc1n[nH]nc1-c1nn[nH][15n]1 | inactive: 6.7% |
| CC(C)(C)C(=O)NC(Sc1ncccn1)C(Cl)(Cl)Cl (stereo not drawn) | inactive: 13.4% |
| O=[As](O)(c1ccccc1Br)c1ccccc1Br | inactive: 2.25% |
| CC(C)/C=N\N=C(\N)N[N+](=O)[O-] | inactive: -1.9% |
| CN(C(=O)Cc1ccc(Cl)c(Cl)c1)[C@@H]1CCCC[C@H]1N1CCCC1 | inactive: -0.3% |
| COc1cc(C(=O)NCC2(N3CCOCC3)CCCCC2)cc(Cl)c1OC(C)C | inactive: 4.6% |
| O=[As](O)(O)c1cccnc1 | inactive: -1.2% |

| SMILES | displacement |
| --- | --- |
| CS(=O)(=O)c1ccc(Cl)c(NC(=O)COC(=O)C(O)(c2ccccc2)c2ccccc2)c1 | inactive: 0.5% |
| O=C(OC1CN2CCC1CC2)c1ccc(Cl)cc1 (stereo not drawn) | inactive: 1.5% |
| O=[As](O)(c1cccc(O)c1)c1cccc(O)c1 | inactive: 4.2% |
| Cc1cccc(OCC(=O)OC2CN3CCC2CC3)c1 (stereo not drawn) | inactive: 6% |
| CCCOP(=S)(Nc1nc(N)cc(=O)[nH]1)OCCC | inactive: -2.2% |
| Cc1ccc(NCCc2c([N+](=O)[O-])cc([N+](=O)[O-])cc2[N+](=O)[O-])cc1 | inactive: 58.1% |
| Nc1cccc2c([As](=O)(O)O)cccc12 | active: 56.8% |
| COc1cc(C2NCCC3(OCCO3)C2(C)C)cc(OC)c1OC (stereo not drawn) | inactive: -0.6% |
| CCOP(=O)(Nc1cccc2ccccc12)OCC | inactive: -2.3% |
| CS(=O)(=O)c1cc([N+](=O)[O-])c2no[n+]([O-])c2c1 | inactive: 15.5% |
| CCOP1(=S)c2c(C)nn(CCC#N)c2N=C(c2ccccc2F)N1C (stereo not drawn) | inactive: -0.7% |
| O=P(Nc1nccs1)(c1ccccc1)c1nc2ccccc2s1 (stereo not drawn) | inactive: -2.2% |
| O=P(Nc1nccs1)(Oc1ccccc1)Oc1ccccc1 | inactive: 0.5% |
| Nc1ccccc1[As](=O)(O)c1ccccc1 | inactive: 1.8% |
| O=C(O)COc1ccc([As](=O)(O)O)cc1[N+](=O)[O-] | inactive: 0.85% |
| NC(=O)Nc1ccc([As](=O)(O)O)cc1 | inactive: 17.5% |
| O=[N+]([O-])c1ccc2c(c1)nnn2O | inactive: 0.9% |
| CN(C(=O)Cc1ccccc1)[C@@H]1CC[C@]2(CCCO2)C[C@H]1N1CCCC1 | inactive: -1.6% |
| CCOP1(=S)c2c(C)nn(CCC#N)c2N=C(c2ccc(F)cc2)N1C (stereo not drawn) | inactive: -1.8% |
